{"sequences": {"note": "The chains behind the UniProt entries cited, without tags or fusion partners.", "UniProt Q9NYA1, whole entry": "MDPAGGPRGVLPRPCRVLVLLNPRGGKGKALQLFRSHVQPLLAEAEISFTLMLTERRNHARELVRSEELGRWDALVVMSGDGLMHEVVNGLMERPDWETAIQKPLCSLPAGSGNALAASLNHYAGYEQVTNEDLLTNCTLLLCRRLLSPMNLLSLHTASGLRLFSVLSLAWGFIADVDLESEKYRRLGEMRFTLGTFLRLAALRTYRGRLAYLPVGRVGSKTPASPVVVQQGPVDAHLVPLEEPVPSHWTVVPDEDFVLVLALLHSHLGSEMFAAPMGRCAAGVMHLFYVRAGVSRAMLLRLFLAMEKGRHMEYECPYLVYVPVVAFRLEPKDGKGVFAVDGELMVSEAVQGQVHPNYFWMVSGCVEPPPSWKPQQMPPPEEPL"}, "source": "paper PMC6047346", "about": "(Journal of medicinal chemistry, 2017)", "molecular_target": "human SphK1 (Homo sapiens, UniProt Q9NYA1)", "experiment": "Sphingosine kinase assay, recombinant human SphK1, γ-[32P]ATP", "details": "compounds at 0.3 μM, triplicate; 5 μM sphingosine, 250 μM γ-[32P]ATP"}
{"substance": "(S)-amino(2-((3-(4-((4-(benzofuran-2-yl)thiazol-2-yl)amino)phenyl)-1,2,4-oxadiazol-5-yl)methyl)pyrrolidin-1-yl)methaniminium chloride [Compound 20ee]", "values": [{"measurement": "hSphK1 (SphK activity, % control, no inhibitor added)", "value": "68 ±7", "unit": "% control"}]}
